{"source": "patent US8067586B2", "about": "“Fused heteroaryl derivatives” (Astellas Pharma Inc., priority 2000, dated 2011)", "system": "A375 cells", "assay": "Melanoma cell growth inhibition (Alamar Blue)", "format": "cell-based", "conditions": "Homo sapiens, A-375, 46 h, read-out: IC50, melanoma cell growth inhibition", "protocol": "A375 cells from a melanoma cell line were cultured in DMEM medium (GIBCO) supplemented with 10% fetal bovine serum. A375 cells at 10,000 cells/100 μl were added to a 96 well plate which contained 1 μl/well of the test compounds (final concentration of 0.001˜30 μM). After incubation for over 46 hours, Alamar Blue reagent was added to the medium (10 μl/well).", "data": [{"smiles": "Nc1ccc(C(=O)Nc2cccc(-c3nc(N4CCOCC4)c4oc5ncccc5c4n3)c2)cn1", "note": "[Co 17, 6-amino-3′-(4-morpholinopyrido[3′,2′:4,5]furo[3,2-d]pyrimidin-2-yl)nicotinanilide]", "values": [{"measurement": "IC50", "value": "330 to 4260", "unit": "nM"}]}]}
